# ChEMBL document CHEMBL3994596, “Structural Basis for Potency and Promiscuity in Poly(ADP-ribose) Polymerase (PARP) and Tankyrase Inhibitors” (J Med Chem, 2017)
# The chains behind the UniProt entries cited, without tags or fusion partners. Where a name states a change or a piece, a line headed by the entry shows the natural chain unless it says otherwise.
# UniProt P09874, whole entry: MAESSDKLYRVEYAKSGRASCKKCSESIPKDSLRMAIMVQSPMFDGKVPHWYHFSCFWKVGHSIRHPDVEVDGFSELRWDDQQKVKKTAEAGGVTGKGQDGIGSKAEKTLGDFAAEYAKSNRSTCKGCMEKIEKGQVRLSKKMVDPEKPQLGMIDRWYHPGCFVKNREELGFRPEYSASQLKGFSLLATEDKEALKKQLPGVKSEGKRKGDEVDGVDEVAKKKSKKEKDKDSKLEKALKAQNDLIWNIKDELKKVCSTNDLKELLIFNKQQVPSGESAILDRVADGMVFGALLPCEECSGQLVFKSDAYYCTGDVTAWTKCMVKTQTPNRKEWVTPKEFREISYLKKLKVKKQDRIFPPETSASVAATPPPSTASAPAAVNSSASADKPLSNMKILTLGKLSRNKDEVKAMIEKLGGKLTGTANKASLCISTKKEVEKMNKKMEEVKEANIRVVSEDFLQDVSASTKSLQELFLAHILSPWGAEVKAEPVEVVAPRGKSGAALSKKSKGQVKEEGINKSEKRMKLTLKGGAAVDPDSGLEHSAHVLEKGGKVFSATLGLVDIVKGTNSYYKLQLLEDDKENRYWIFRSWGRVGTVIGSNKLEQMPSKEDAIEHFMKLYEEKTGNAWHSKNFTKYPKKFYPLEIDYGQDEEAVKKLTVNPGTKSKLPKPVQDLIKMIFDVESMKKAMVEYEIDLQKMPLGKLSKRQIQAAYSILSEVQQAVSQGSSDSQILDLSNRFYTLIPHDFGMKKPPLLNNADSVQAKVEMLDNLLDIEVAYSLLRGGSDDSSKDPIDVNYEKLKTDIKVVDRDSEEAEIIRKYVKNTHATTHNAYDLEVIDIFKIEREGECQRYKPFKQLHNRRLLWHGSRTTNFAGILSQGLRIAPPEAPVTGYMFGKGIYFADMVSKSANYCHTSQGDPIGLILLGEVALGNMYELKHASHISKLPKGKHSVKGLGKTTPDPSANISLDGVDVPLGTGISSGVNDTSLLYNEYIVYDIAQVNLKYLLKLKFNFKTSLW
# UniProt Q9UKK3: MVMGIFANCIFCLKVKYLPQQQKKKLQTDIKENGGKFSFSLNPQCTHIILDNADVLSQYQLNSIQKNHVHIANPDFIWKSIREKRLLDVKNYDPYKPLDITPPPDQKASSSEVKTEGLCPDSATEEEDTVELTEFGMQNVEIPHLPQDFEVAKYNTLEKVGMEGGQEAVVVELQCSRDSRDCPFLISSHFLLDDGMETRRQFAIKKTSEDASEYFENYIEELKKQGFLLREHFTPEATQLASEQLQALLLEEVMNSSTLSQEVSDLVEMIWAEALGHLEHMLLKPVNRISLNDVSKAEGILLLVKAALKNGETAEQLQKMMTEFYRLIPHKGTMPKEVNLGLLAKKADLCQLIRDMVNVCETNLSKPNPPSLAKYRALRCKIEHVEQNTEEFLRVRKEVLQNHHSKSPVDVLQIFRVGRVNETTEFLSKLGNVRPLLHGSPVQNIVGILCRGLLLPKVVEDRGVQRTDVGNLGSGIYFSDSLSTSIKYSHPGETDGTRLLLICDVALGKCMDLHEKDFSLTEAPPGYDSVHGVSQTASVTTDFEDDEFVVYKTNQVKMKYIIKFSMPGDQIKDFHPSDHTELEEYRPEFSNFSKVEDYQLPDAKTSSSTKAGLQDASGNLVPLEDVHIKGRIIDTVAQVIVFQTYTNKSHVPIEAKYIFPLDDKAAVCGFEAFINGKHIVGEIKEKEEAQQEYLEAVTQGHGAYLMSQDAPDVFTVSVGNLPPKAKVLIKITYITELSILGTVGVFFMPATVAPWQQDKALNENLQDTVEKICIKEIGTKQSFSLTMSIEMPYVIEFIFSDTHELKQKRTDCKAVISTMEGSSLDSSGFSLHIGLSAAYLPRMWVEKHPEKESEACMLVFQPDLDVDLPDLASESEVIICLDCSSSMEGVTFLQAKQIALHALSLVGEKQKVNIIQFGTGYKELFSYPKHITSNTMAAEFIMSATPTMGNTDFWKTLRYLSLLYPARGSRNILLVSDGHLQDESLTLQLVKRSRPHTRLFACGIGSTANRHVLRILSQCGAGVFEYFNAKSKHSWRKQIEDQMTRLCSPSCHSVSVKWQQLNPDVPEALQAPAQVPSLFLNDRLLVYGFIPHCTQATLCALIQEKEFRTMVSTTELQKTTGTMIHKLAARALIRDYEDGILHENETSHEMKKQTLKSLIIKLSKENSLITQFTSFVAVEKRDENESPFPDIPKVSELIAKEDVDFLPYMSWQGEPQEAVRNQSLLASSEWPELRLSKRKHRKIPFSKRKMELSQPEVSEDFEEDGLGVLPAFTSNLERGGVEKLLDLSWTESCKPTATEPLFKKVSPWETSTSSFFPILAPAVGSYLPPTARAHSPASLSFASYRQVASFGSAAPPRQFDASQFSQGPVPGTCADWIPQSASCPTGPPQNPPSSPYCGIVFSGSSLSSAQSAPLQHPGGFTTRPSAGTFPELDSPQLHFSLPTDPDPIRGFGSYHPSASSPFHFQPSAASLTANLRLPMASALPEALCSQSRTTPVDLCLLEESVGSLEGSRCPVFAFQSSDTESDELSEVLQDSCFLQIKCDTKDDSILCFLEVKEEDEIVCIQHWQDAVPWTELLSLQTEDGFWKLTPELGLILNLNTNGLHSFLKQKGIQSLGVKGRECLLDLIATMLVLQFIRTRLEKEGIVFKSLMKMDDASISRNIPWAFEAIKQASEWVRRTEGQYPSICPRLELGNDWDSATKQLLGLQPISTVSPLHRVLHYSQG
# The source made the active and inactive calls. The calls are words filed in the database; no cut-off is given here.
# Legend:
# [1] = molecular target: T1, Poly [ADP-ribose] polymerase tankyrase-1 (Homo sapiens, UniProt O95271)
# T1 sequence (O95271 whole entry): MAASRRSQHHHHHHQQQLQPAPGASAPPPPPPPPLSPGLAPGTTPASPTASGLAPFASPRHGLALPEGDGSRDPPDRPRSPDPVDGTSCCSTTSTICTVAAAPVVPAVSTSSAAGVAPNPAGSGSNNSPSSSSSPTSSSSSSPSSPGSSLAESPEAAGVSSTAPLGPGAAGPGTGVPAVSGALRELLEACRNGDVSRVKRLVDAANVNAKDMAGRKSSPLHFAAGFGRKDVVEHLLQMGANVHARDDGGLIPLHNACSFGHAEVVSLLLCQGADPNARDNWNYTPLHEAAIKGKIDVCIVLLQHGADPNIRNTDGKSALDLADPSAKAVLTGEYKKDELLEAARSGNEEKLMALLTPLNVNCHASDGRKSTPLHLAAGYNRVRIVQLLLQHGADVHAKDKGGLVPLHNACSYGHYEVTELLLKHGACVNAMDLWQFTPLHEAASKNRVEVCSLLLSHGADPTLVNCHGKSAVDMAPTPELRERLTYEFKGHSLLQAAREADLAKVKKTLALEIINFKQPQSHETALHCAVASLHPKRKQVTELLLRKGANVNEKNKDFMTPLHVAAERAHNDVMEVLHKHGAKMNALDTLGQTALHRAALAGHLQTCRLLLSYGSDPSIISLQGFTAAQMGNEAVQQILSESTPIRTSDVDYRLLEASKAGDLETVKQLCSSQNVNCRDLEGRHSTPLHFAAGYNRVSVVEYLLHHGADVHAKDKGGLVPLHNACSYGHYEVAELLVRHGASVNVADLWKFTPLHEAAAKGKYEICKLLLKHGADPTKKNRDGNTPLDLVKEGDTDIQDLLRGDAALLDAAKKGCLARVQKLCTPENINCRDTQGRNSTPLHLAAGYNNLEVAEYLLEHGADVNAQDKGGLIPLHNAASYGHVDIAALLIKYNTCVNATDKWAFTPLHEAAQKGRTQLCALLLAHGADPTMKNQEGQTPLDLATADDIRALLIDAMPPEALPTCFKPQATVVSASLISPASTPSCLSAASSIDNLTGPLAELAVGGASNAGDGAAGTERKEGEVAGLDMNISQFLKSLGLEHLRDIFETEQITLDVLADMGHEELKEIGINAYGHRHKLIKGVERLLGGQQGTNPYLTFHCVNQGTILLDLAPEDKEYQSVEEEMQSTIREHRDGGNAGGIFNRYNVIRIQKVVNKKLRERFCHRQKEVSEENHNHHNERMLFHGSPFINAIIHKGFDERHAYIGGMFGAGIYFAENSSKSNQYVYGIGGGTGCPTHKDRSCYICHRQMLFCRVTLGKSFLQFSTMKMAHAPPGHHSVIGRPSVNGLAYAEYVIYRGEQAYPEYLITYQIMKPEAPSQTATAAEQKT
# [2] = molecular target: Poly [ADP-ribose] polymerase 1 (Homo sapiens, UniProt P09874)
# [3] = molecular target: T2, Protein mono-ADP-ribosyltransferase PARP3 (Homo sapiens) (UniProt Q9Y6F1)
# T2 sequence (whole entry): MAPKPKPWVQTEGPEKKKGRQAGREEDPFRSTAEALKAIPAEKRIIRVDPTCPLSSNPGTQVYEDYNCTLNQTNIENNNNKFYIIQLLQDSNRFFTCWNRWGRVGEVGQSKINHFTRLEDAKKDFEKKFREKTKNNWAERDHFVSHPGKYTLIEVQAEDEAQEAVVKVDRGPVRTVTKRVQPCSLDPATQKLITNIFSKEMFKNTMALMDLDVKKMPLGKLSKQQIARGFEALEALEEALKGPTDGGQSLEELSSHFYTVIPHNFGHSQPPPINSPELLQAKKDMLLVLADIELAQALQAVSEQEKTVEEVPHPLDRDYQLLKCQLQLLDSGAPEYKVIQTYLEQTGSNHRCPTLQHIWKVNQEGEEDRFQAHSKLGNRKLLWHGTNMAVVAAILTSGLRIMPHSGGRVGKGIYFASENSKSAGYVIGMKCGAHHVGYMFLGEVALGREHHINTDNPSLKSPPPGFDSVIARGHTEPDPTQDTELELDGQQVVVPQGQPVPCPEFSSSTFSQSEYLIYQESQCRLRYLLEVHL
# [4] = molecular target: Protein mono-ADP-ribosyltransferase PARP4 (Homo sapiens, UniProt Q9UKK3)
# [5] = molecular target: T3, Protein mono-ADP-ribosyltransferase PARP10 (Homo sapiens, UniProt Q53GL7)
# T3 sequence (Q53GL7 whole entry): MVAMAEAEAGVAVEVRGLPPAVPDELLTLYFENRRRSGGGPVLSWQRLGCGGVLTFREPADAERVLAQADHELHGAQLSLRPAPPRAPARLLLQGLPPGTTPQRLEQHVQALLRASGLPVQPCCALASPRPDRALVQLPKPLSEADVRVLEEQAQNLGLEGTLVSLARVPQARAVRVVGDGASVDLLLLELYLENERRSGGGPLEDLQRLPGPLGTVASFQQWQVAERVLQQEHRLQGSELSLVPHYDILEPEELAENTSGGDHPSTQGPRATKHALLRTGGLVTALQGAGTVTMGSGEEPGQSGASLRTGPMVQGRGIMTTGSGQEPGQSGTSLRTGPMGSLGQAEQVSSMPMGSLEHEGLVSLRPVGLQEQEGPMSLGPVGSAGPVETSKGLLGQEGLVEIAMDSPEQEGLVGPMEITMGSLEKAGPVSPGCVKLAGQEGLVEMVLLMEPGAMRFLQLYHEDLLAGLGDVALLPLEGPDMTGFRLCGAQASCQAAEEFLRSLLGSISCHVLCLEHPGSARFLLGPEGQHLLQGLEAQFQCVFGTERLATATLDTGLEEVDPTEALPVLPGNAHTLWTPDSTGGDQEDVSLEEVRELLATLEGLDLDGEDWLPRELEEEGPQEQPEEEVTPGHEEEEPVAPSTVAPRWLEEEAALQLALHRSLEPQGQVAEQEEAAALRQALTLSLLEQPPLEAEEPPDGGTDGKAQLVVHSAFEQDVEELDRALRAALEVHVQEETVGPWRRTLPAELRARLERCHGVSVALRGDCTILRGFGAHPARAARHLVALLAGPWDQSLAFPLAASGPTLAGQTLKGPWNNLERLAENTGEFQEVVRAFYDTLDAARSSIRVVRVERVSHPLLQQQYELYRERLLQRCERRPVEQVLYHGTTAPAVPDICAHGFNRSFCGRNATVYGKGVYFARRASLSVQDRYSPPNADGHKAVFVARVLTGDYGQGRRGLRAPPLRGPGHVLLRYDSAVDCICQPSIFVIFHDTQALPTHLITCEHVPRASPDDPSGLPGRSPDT
# [6] = molecular target: T3, Protein mono-ADP-ribosyltransferase PARP10; remark: listed apart in the source
Compound,IC50 [1] [nM],IC50 [2] [nM],pIC50 [3],IC50 [4] [nM],IC50 [5] [nM],IC50 [6] [nM]
Cc1cc(N2C[C@@H](C)N[C@@H](C)C2)ncc1-c1ccc(-c2nc3c(ccn3C)c(=O)[nH]2)cc1,100,1600,inactive,–,–,–
NC(=O)c1cccc2cn(-c3ccc([C@@H]4CCCNC4)cc3)nc12 [NIRAPARIB],–,–,–,446,3300,1900
